Experimental data published in US7060501B2 (priority 2002, dated 2006).

Assays:
[1] = system: maize callus; test: Effect of organophosphates on maize callus growth (FIG. 1); format: cell-based
[2] = molecular target: organophosphate hydrolase (Brevundimonas diminuta, UniProt P0A434); details: cited from earlier work

| Compound | effect on new growth from maize callus [1] | rate of hydrolysis by organophosphate hydrolase compared with strong alkaline / non-enzymatic hydrolysis [2] |
| --- | --- | --- |
| CC(C)OP(=S)(OC(C)C)SCCNS(=O)(=O)c1ccccc1 | inhibitory effect |  |
| azinophos-methyl |  | thousands of times greater |
